Experimental data reported in PubChem BioAssay (NCI).
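Protocol summary: plate cells (96-well), add compound at 5 concentrations, incubate 48 h, interpolate endpoints linearly. GI50 is the concentration that inhibits growth by half. TGI: total growth inhibition.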

Legend:
Assay in all cases: NCI anticancer screen, dose series, 48 h
[1] = system: KM12 colon
[2] = system: SNB-19 CNS
[3] = system: MDA-MB-435
[4] = system: UO-31 renal
[5] = system: HCT-15 colon
[6] = system: MOLT-4 leukemia
[7] = system: NCI/ADR-RES ovarian
[8] = system: A498 renal
[9] = system: NCI-H226 lung
[10] = system: SF-295 CNS
[11] = system: HS 578T breast
[12] = system: SK-MEL-2 melanoma
[13] = system: COLO 205 colon
[14] = system: M14 melanoma
[15] = system: T-47D breast
[16] = system: A549 NSCLC
[17] = system: UACC-257 melanoma
[18] = system: OVCAR-3 ovarian
[19] = system: SK-OV-3 ovarian
[20] = system: RPMI-8226 leukemia
[21] = system: HOP-62 NSCLC
[22] = system: SW-620 colon
[23] = system: OVCAR-4 ovarian
[24] = system: CCRF-CEM leukemia
[25] = system: LOX IMVI melanoma
[26] = system: PC-3 prostate
[27] = system: K-562 leukemia
[28] = system: SK-MEL-5 melanoma
[29] = system: CAKI-1 renal
[30] = system: TK-10 renal
[31] = system: MDA-N
[32] = system: NCI-H522 lung
[33] = system: NCI-H23 lung
[34] = system: OVCAR-5 ovarian
[35] = system: MALME-3M melanoma
[36] = system: SR leukemia
[37] = system: IGROV1 ovarian
[38] = system: MCF7 breast
[39] = system: MDA-MB-231 breast
[40] = system: HT29 colon
[41] = system: OVCAR-8 ovarian
[42] = system: U251 CNS
[43] = system: SF-539 CNS
[44] = system: NCI-H322M lung
[45] = system: EKVX NSCLC
[46] = system: 786-0 renal
[47] = system: HOP-92 NSCLC
[48] = system: SN12C renal
[49] = system: UACC-62 melanoma
[50] = system: NCI-H460 lung
[51] = system: BT-549 breast
[52] = system: HCC-2998 colon
[53] = system: ACHN renal
[54] = system: RXF 393 renal
[55] = system: SF-268 CNS
[56] = system: HCT-116 colon

## Cn1c(N=[N+]=[N-])c([N+](=O)[O-])c(=O)n(C)c1=O
[1]
  GI50: > 100 µM
  TGI: > 100 µM
[2]
  GI50: > 100 µM
  TGI: > 100 µM
[3]
  GI50: > 100 µM
  TGI: > 100 µM
[4]
  GI50: > 100 µM
  TGI: > 100 µM
[5]
  GI50: > 100 µM
  TGI: > 100 µM
[6]
  GI50: 64.6 µM
  TGI: > 100 µM
[7]
  GI50: > 100 µM
  TGI: > 100 µM
[8]
  GI50: > 100 µM
  TGI: > 100 µM
[9]
  GI50: > 100 µM
  TGI: > 100 µM
[10]
  GI50: > 100 µM
  TGI: > 100 µM
[11]
  GI50: > 100 µM
  TGI: > 100 µM
[12]
  GI50: > 100 µM
  TGI: > 100 µM
[13]
  GI50: > 100 µM
  TGI: > 100 µM
[14]
  GI50: 59.9 µM
  TGI: > 100 µM
[15]
  GI50: > 100 µM
  TGI: > 100 µM
[16]
  GI50: > 100 µM
  TGI: > 100 µM
[17]
  GI50: > 100 µM
  TGI: > 100 µM
[18]
  GI50: > 100 µM
  TGI: > 100 µM
[19]
  GI50: > 100 µM
  TGI: > 100 µM
[20]
  GI50: 99.9 µM
  TGI: > 100 µM
[21]
  GI50: > 100 µM
  TGI: > 100 µM
[22]
  GI50: > 100 µM
  TGI: > 100 µM
[23]
  GI50: > 100 µM
  TGI: > 100 µM
[24]
  GI50: 51.9 µM
  TGI: > 100 µM
[25]
  GI50: > 100 µM
  TGI: > 100 µM
[26]
  GI50: > 100 µM
  TGI: > 100 µM
[27]
  GI50: > 100 µM
  TGI: > 100 µM
[28]
  GI50: > 100 µM
  TGI: > 100 µM
[29]
  GI50: > 100 µM
  TGI: > 100 µM
[30]
  GI50: > 100 µM
  TGI: > 100 µM
[31]
  GI50: > 100 µM
  TGI: > 100 µM
[32]
  GI50: > 100 µM
  TGI: > 100 µM
[33]
  GI50: > 100 µM
  TGI: > 100 µM
[34]
  GI50: 71.3 µM
  TGI: > 100 µM
[35]
  GI50: > 100 µM
  TGI: > 100 µM
[36]
  GI50: > 100 µM
  TGI: > 100 µM
[37]
  GI50: > 100 µM
  TGI: > 100 µM
[38]
  GI50: > 100 µM
  TGI: > 100 µM
[39]
  GI50: > 100 µM
  TGI: > 100 µM
[40]
  GI50: > 100 µM
  TGI: > 100 µM
[41]
  GI50: > 100 µM
  TGI: > 100 µM
[42]
  GI50: > 100 µM
  TGI: > 100 µM
[43]
  GI50: > 100 µM
  TGI: > 100 µM
[44]
  GI50: > 100 µM
  TGI: > 100 µM
[45]
  GI50: > 100 µM
  TGI: > 100 µM
[46]
  GI50: > 100 µM
  TGI: > 100 µM
[47]
  GI50: > 100 µM
  TGI: > 100 µM
[48]
  GI50: > 100 µM
  TGI: > 100 µM
[49]
  GI50: > 100 µM
  TGI: > 100 µM
[50]
  GI50: > 100 µM
  TGI: > 100 µM
[51]
  GI50: > 100 µM
  TGI: > 100 µM
[52]
  GI50: > 100 µM
  TGI: > 100 µM
[53]
  GI50: > 100 µM
  TGI: > 100 µM
[54]
  GI50: > 100 µM
  TGI: > 100 µM
[55]
  GI50: > 100 µM
  TGI: > 100 µM
[56]
  GI50: > 100 µM
  TGI: > 100 µM
